Data from US20210128561A1, “MRGX Receptor Antagonists” (Rheinische-Friedrich-Wilhelms-Universität Bonn, priority 2019, published 2021).

Chains of the proteins cited; added tags and fusions are not shown.
UniProt Q96LA9, whole entry L83S: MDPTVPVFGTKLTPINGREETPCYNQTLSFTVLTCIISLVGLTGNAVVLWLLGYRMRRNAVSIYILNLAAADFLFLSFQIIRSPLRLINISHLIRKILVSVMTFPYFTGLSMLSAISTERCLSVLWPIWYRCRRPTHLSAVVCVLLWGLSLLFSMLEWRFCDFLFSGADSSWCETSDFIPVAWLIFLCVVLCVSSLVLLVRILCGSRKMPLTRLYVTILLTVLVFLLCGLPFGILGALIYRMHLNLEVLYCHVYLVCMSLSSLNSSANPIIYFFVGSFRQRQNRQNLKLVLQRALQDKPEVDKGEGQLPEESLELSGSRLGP

Molecular target: human MrgX4 L83S (Homo sapiens, UniProt Q96LA9, L83S)
Experiment: β-arrestin assay (CHO β-arrestin human MrgX4 L83S)
Type: cell-based

## CCc1c(C(C)(C)O)[nH]c2nc3cc(F)ccc3n2c1=O
  IC50: 58.2 nM
